pIC50: −log10 of the molar value.
What was measured:
recombinant PDI = recombinant PDI (Homo sapiens, UniProt P07237); assay: PDI activity assay (di-eosin-di-gluthathione, eGSSG)
Method: PDI activity assay: The di-eosin-di-gluthathione assay was performed essentially as described (Raturi, A. and Mutus, B Free Radical Biology & Medicine 43; 2007) with the minor modification that we used gluthathione instead of DTT as reducing agent. Briefly, recombinant PDI was incubated with CC642 or analogs in potassium-based assay buffer at 37° C. before reactions were started by addition of gluthathione and di-eosin-di-gluthathione. Release of eosin was measured every 60 seconds for 30 min using excitation/emission filters of 525 nm/545 nm, respectively.
Next, MM1.S cells were treated with B-CCF642 and purified lysates of treated and untreated cells for B-CCF642 binding proteins using streptavidin beads followed by SDS-PAGE and mass spectroscopy for protein sequencing of a band that contained biotin signal. Among 10 proteins that were only recovered from treated cells PDI was the most abundant but HSP70 family members were also recovered. To test whether HSP70 family members were inhibited by CCF642, chaperone assays were performed that tested rearrangement of partially denatured luciferase. […] However, PDI function, as assessed by the eGSSG assay which measures PDI's reducing capacity, was inhibited by CCF642 (table 1). […] To determine whether PDI activity is inhibited in vivo, the inventors performed IRE1-α immunoblots after CCF642 treatment of MM1.S cells. […]

Amino acid sequences for entries named in this document (tags omitted). Residues count along the entry.
UniProt P07237, 18-508 limits assumed: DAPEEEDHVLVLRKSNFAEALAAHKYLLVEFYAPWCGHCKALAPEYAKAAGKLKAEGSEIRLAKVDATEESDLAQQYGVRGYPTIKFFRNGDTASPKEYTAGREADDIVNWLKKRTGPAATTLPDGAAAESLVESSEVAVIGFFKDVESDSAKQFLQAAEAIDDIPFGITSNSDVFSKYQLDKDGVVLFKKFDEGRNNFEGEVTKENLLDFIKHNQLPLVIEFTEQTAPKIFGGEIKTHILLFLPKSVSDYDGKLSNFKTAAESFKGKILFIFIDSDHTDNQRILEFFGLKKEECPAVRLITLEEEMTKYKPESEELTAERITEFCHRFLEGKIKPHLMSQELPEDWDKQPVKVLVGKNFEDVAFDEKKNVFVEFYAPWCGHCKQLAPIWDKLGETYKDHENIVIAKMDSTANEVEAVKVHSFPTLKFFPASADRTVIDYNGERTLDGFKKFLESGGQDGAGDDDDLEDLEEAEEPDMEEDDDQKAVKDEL

MM1.S = MM1.S myeloma cell viability

Which results are given for `COCCOCCOCCN1C(=O)/C(=C/c2ccc([N+](=O)[O-])s2)SC1=S`?
PDI Activity at 10 μM (%) (recombinant PDI; compound at 10 μM): 23.33%; pIC50 (recombinant PDI; read-out: PDI IC50, recombinant PDI, di-eosin-di-gluthathione assay): 5.18; MM1.S Viable cells at 6.75 μM (%) (MM1.S; compound at 6.75 μM): 12.63%; pIC50 (MM1.S; read-out: MM1.S IC50, MM1.S myeloma cells): 5.95

From patent US9359342B2, “Protein disulfide isomerase inhibiting anticancer agents” (THE CLEVELAND CLINIC FOUNDATION, priority 2013, dated 2016)
